Test results taken from ChEMBL document CHEMBL3769321, “Design and evaluation of novel glutaminase inhibitors” (Bioorg Med Chem, 2016).

System: MDA-MB-231
Assay: Cytotoxicity against human MDA-MB-231 cells measured on 6th day by hemocytometry
Type: functional, cell-based

O=C(Cc1cccc(OC(F)(F)F)c1)Nc1ccc(CCCCc2nnc(NC(=O)Cc3ccccn3)s2)nn1
IC50: 0.033 µM
